For assay [1], the system named is NCI-H460 (Non-small Cell Lung Cancer cells). The assay is described as follows: Cancer cell growth inhibition (Example 14). The settings on record: 10 μM, 48 h. Here is the method: (§1) The abilities of compounds 37, 38 and 40 to inhibit cancer cell growth were evaluated. Results are illustrated in FIG. 4A: Four human cancer cell lines (SR, NCI-H460, CAKI-1, and SN12C) were incubated with 10 μM of compounds 40, 38 and 37 for 48 h (grey bar—37; black bar—40; lined bar—38). […] .

Assay [2] has as its system SN12C (Renal Cancer cells). The assay is described as follows: Cancer cell growth inhibition (Example 14). Particulars: 10 μM, 48 h. The procedure: as §1
In assay [3] the test system is 49 mer DNA duplex 292.
The subject of assay [4] is OVCAR-8 (Ovarian). Briefly: NCI 60 panel GI50. The class given is cell-based, human.
Assay [5] has as its system CAKI-1 (Renal Cancer cells). Briefly: Cancer cell growth inhibition (Example 14). The settings on record: 10 μM, 48 h. Here is the method:
as §1

The subject of assay [6] is SR cells (Leukemia cell). The assay is described as follows: Cancer cell growth inhibition (Example 14). The settings on record: 10 μM, 48 h. Here is the method: as §1

Read-outs that look alike come from different tables or passages of the source. Some compounds may have been tested in ways that are not shown here.

From US8962670B2, “Anti-cancer agents” (UWM Research Foundation, Inc., priority 2011, dated 2015) come the findings set out here.

Regarding `CC1(C)OB(c2ccc(C[N+](C)(CCCl)CCCl)cc2)OC1(C)C` [Compound 40, N,N-Bis(2-chloroethyl)-N-methyl-N-[4-(4,4,5,5-tetramethyl-1,3,2-dioxaborolan-2-yl)phenyl]methanaminium bromide], the values for the inhibition in assay [1] and in assay [2] were 85% and 57%, respectively. Also, the cross-linking yield in assay [3] (1.0 mM H2O2 + 2.0 mM compound) turned out to be 28%.

In assay [4], `OB(O)c1ccc(N(CCCl)CCCl)cc1` showed a GI50 of 4.2 µM.

As to `C[N+](CCCl)(CCCl)Cc1ccc(B(O)O)cc1`, the inhibition (as a rule, the percentage by which the read-out fell short of the control) in assay [5] is 66%; in assay [1] it was 85%; in assay [2] it was 57%; in assay [6], “about 90%”. Moreover, the cross-linking yield in assay [3] (50 μM H2O2 + 100 μM compound) is reported as 2.0%; in assay [3] (100 μM H2O2 + 200 μM compound), 4%; in assay [3] (250 μM H2O2 + 500 μM compound), 11%; in assay [3] (500 μM H2O2 + 1.0 mM compound), 17%; in assay [3] (1.0 mM H2O2 + 2.0 mM compound) it was 27%; in assay [3] (1.5 mM H2O2 + 3.0 mM compound), 35%. Moreover, the cross-linking yield in assay [3] (2.0 mM H2O2 + 4.0 mM compound) was found to be 43%. For the same compound, in assay [3] (lanes 3 and 11), the “concentration of H2O2 at which DNA crosslinking was observed (as low as)” value was 50 µM.
